Results from PubChem BioAssay AID624246 (National Center for Advancing Translational Sciences (NCATS), 2012).
The list shows a part of the results, in another mix than the full data. Calls of active or inactive are those of the source. The call rests on the fitted dose curve; in most records, active means well fitted inhibition curve with a large enough effect in the polarisation, with a control signal flat; inconclusive means small, poorly fitted or top-dose-only effect, or effect the other way, or a change in a side signal; inactive means no such curve, though single readings can be large or run the other way; the % refers to the polarisation.

Sequences of proteins named here, by UniProt entry; tags and fusion partners are left off.
UniProt P11308, whole entry: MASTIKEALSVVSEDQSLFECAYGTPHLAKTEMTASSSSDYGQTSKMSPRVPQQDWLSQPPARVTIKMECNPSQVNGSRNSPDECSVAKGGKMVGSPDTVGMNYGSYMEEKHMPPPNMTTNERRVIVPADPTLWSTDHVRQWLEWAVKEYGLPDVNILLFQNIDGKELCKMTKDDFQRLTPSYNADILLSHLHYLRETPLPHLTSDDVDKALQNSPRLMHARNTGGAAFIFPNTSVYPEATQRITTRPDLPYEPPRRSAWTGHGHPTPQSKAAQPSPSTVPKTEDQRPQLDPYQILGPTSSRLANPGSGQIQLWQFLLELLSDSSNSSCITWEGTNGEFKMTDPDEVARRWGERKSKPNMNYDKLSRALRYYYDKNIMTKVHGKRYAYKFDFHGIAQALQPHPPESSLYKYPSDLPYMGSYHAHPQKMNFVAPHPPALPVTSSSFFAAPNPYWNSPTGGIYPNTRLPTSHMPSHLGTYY

target: Transcriptional regulator ERG (Homo sapiens) (UniProt P11308); assay: qHTS for Small Molecule Inhibitors of the ERG Ets/DNA interaction; conditions: fluorescence polarization, His-ERG Ets domain / labelled DNA; at 76.9 µM (top of the series); further: % of control where 0% means no effect
Description: The Ets family of proteins is a family of ~30 conserved transcription factors defined by the presence of an ~85 amino acid domain referred to as the Ets domain, which mediates sequence-specific DNA binding to a core DNA element GGAA/T.The Ets family member ERG has been linked to several neoplasms. […] More extensive studies of the effects of over-expression of ERG in prostate cells have recently been carried out and have shown that over-expression of ERG results in increased invasion. […] We will carry out a high throughout screen to identify inhibitors of the interaction between ERG and DNA using a fluorescence polarization (FP) assay with a His-tagged ERG Ets domain and fluorescently-labeled DNA probes to develop small molecule inhibitors of this interaction as probes to test this hypothesis and lay the groundwork for the development of targeted therapies against ERG. NIH Molecular Libraries Probe Production Network [MLPCN] NIH Chemical Genomics Center [NCGC] Grant: NS066464 PI Name: John Bushweller, University of Virgina
1.5 ul of protein solution (1 uM ERG domain in 300mM KCl, 50mM Tris-HCl, 1mM EDTA, 1mM DTT, pH 7.5); 20 nl Control plate and compound library plate; 1.5 ul mixture of 5 nM Fluorescein-DNA and 100nM Texas-615-DNA solution in same buffer as above solution; measure fluorescence polarization sequentially for fluorescein (Excitation = 480 nm, Emission = 535s, 535p nm) and Texas red (Excitation = 555 nm, Emission = 632s, 632p nm).

SMILES | FP activity, negative = inhibition
CCOC(=O)c1ccc(NP(C)(=O)Oc2ccc(OC)cc2)cc1 (configuration not stated) | inactive: -1.72%
O=[N+]([O-])c1cc([N+](=O)[O-])c(O)c([N+](=O)[O-])c1.c1ccc(Oc2ccncc2)cc1 | inactive: 15.6%
CCOP(C)(=S)SCC(=O)NC(C)C(=O)O (configuration not stated) | inactive: -5.92%
Cc1cccc(C)c1OP(C)(=O)Nc1ccc(SC(F)(F)F)cc1 (configuration not stated) | inactive: 9.22%
CP(=O)(Nc1ccc(SC(F)(F)F)cc1)Oc1ccc(Cl)cc1 (configuration not stated) | inactive: -4.6%
CP(=O)(Oc1ccccc1)OC(c1ccccc1)C(F)(F)F (configuration not stated) | inactive: -4.53%
CCc1ccc(OP(C)(=O)N2CCN(c3ccc([N+](=O)[O-])cc3)CC2)cc1 (configuration not stated) | inactive: -4.35%
Cc1cc(C)cc(OP(C)(=O)Nc2ccc(SC(F)(F)F)cc2)c1 (configuration not stated) | inactive: 2.46%
CP(=S)(Nn1cnnc1)Oc1ccccc1 (configuration not stated) | inactive: 1.51%
CP(=O)(Nc1ccccc1Br)Oc1ccccc1 (configuration not stated) | inactive: -29.3%
COc1ccccc1OP(C)(=O)Nc1ccccc1 (configuration not stated) | inactive: 2.23%
COc1ccccc1OP(C)(=O)Nc1ccc(C)cc1 (configuration not stated) | inactive: -3.98%
Cc1ccc(NP(C)(=O)Oc2ccccc2)c(C)c1 (configuration not stated) | inactive: -8.84%
CCOC(=O)c1ccc(NP(C)(=O)Oc2ccccc2)cc1 (configuration not stated) | inactive: -6.43%
Cc1cc(C)cc(OP(C)(N)=O)c1 (configuration not stated) | inactive: -0.31%
COc1ccccc1OP(C)(=O)Nc1cc(Cl)ccc1C (configuration not stated) | inactive: 11.1%
COc1ccc(OP(C)(=O)Nc2cccc(F)c2)cc1 (configuration not stated) | inactive: -4%
O=[N+]([O-])c1cc([N+](=O)[O-])c(Nc2cccnc2)c([N+](=O)[O-])c1 | inactive: 14.5%
O=[N+]([O-])c1ccc2c(c1)C=Nc1ccccc1O2 | inactive: 13.7%
CC(C)(C)c1ccc(OP(C)(=O)Nc2ccc(SC(F)(F)F)cc2)cc1 (configuration not stated) | inactive: -22.1%
Cc1cccc(C)c1OP(C)(N)=O (configuration not stated) | inactive: 10.1%
CCN(CC)CCCOC(=O)C(O)(c1ccccc1)c1ccccc1 | inactive: -0.185%
Cc1ccc(C)c(NP(C)(=O)Oc2ccccc2)c1 (configuration not stated) | inactive: -8.3%
CP(=O)(Nc1cccc(Br)c1)Oc1ccccc1 (configuration not stated) | inactive: 1.33%
COc1ccccc1OP(C)(=O)Nc1cccc(Br)c1 (configuration not stated) | inactive: -0.512%
Cc1cc(C)cc(OP(C)(=O)Nc2ccc(C)cc2C)c1 (configuration not stated) | inactive: 5.49%

SMILES | FP activity, negative = inhibition
CC1=NCCc2c1[nH]c1ccccc21.O=[N+]([O-])c1cc([N+](=O)[O-])c(O)c([N+](=O)[O-])c1 | inactive: 5.12%
COc1ccccc1OP(C)(=O)Nc1c(C)cccc1C (configuration not stated) | inactive: -1.77%
CN1CCCCC1COC(=O)C1(O)c2ccccc2CCc2ccccc21 (configuration not stated) | inactive: 7.47%
CCCOc1ccc(NP(C)(=O)Oc2ccc(Cl)cc2)cc1 (configuration not stated) | inactive: -3.94%
CP(=O)(Nc1ccc(SC(F)(F)F)cc1)Oc1ccccc1 (configuration not stated) | inactive: 5.54%
CC1=C2N=C(C=C3N=C(C(C)=C4[N-][C@@](C)([C@@H]5N=C1[C@](C)(CCC(=O)NC[C@@H](C)OP(=O)([O-])O[C@H]1[C@@H](O)[C@@H](n6cnc7cc(C)c(C)cc76)O[C@@H]1CO)[C@H]5CC(N)=O)[C@@](C)(CC(N)=O)[C@@H]4CCC(N)=O)[C@@](C)(CC(N)=O)[C@@H]3CCC(N)=O)C(C)(C)[C@@H]2CCC(N)=O.[C-]#N.[Co+3] | inactive: 1.84%
O=[N+]([O-])c1cc([N+](=O)[O-])c(Nc2nnnn2CCO)c([N+](=O)[O-])c1 | inactive: -7.95%
O=[N+]([O-])c1cc([N+](=O)[O-])c(-c2cnn(-c3ccccc3)c2)c([N+](=O)[O-])c1 | inactive: 1.87%
Cc1nc2ccc3ccccc3c2s1.O=[N+]([O-])c1cc([N+](=O)[O-])c(O)c([N+](=O)[O-])c1 | inactive: 6.41%
O=[N+]([O-])c1cc([N+](=O)[O-])c(-n2nnc3ccccc32)c([N+](=O)[O-])c1 | inactive: 8.76%
CP(=O)(Nc1ccc2c(c1)OCCO2)Oc1ccccc1 (configuration not stated) | inactive: 9.54%
Cc1ccccc1NP(C)(=O)Nc1ccccc1C | inactive: -3.18%
CP(=O)(Nc1ccc(SC(F)(F)F)cc1)Oc1ccc(F)cc1 (configuration not stated) | inactive: -17.5%
CCOP(C)(=S)SCC(=O)NC(C)(CC)C(=O)O (configuration not stated) | inactive: -0.283%
O=[N+]([O-])c1ccc(OP2(=O)COCCO2)cc1 (configuration not stated) | inactive: 2.69%
Cc1cc(-c2cccc3ccccc23)c(C)cn1.O=[N+]([O-])c1cc([N+](=O)[O-])c(O)c([N+](=O)[O-])c1 | inactive: 4.07%
Cc1c(C(c2ccc3c(c2)OCO3)c2c(C)n(C)n(-c3ccccc3)c2=O)c(=O)n(-c2ccccc2)n1C.O=[N+]([O-])c1cc([N+](=O)[O-])c(O)c([N+](=O)[O-])c1 | inactive: -7.46%
COc1ccc(OP(C)(=O)Nc2cccc(Br)c2)cc1 (configuration not stated) | inactive: -1.31%
CN(C)CCOC(=O)C(O)(c1ccccc1)C1CCCCC1 (configuration not stated) | inactive: 1.77%
COc1ccc(NP(C)(=O)Oc2ccccc2OC)cc1 (configuration not stated) | inactive: 0.439%
Cc1c([N+](=O)[O-])cc([N+](=O)[O-])c(Br)c1[N+](=O)[O-] | inactive: -1.87%
CCN(CC)CCCOC(=O)C(O)(c1ccccc1)C1CCCCC1 (configuration not stated) | inactive: 2.65%
CCCCCOc1ccc(NP(C)(=O)Oc2ccc(Cl)cc2Cl)cc1 (configuration not stated) | inactive: 5.6%
CCOC(=O)c1ccc(NP(C)(=O)Oc2ccc(F)cc2)cc1 (configuration not stated) | inactive: -7.52%
COc1ccc(OP(C)(=O)Nc2ccc(SC(F)(F)F)cc2)cc1 (configuration not stated) | inactive: 0.293%
O=C(OCCN1CCN(CCOCc2ccccc2)CC1)C(O)(c1ccccc1)c1ccccc1 | inactive: -2.44%

SMILES | FP activity, negative = inhibition
CC(C)c1ccc(OP(C)(=O)Nc2ccc(SC(F)(F)F)cc2)cc1 (configuration not stated) | inactive: 5.89%
Cc1c(NP(C)(=O)Oc2ccc(C(C)C)cc2)c(=O)n(-c2ccccc2)n1C (configuration not stated) | inactive: -7.99%
O=[N+]([O-])c1cc([N+](=O)[O-])c(Nc2ccccn2)c([N+](=O)[O-])c1 | inactive: 2.98%
CP(=O)(Nc1ccccn1)Oc1ccccc1 (configuration not stated) | inactive: -0.991%
COc1ccccc1OP(C)(=O)Nc1ccc(C)cc1C (configuration not stated) | inactive: -5.94%
CCc1ccc(OP(C)(=O)O)cc1 | inactive: -7.35%
COc1ccccc1OP(C)(=O)Nc1ccc(Br)cc1 (configuration not stated) | inactive: -3.14%
CP(=O)(Nc1ccc(Cl)cc1Cl)Oc1ccccc1 (configuration not stated) | inactive: 7.51%
CCCCCCCCCCCCCCCC1C[N+](C)(C)CCOP(C)(=O)O1 (configuration not stated) | inactive: 8.01%
CP(=O)(OCCOc1ccccc1)OCCOc1ccccc1 | inactive: -6.95%
Cc1cc(C)cc(OP(C)(=O)Nc2cccc(C(F)(F)F)c2)c1 (configuration not stated) | inactive: 1.97%
COc1ccccc1OP(C)(=O)Nc1ccc(C)c(C)c1 (configuration not stated) | inactive: 2.51%
COc1ccc(OP(C)(=O)Nc2ccccc2Br)cc1 (configuration not stated) | inactive: -3.32%
Nc1ccc2c(ccc3cccnc32)n1.O=[N+]([O-])c1cc([N+](=O)[O-])c(O)c([N+](=O)[O-])c1 | inactive: -0.164%
CCOC(=O)c1ccc(NP(C)(=O)Oc2ccc(Cl)cc2)cc1 (configuration not stated) | inactive: -7.12%
CP(=O)(OC12CC3CC(CC(C3)C1)C2)OC12CC3CC(CC(C3)C1)C2 | inactive: -5.07%
COc1ccccc1OP(C)(=O)Nc1ccccc1Br (configuration not stated) | inactive: 24.2%
CC(C)(C)c1ccc(OP(C)(=O)O)cc1 | inactive: 0.233%
CN(C)C(=O)c1c([N+](=O)[O-])cc([N+](=O)[O-])cc1[N+](=O)[O-] | inactive: 7.87%
CCN(CC)CC(O)COC(=O)C(O)(c1ccccc1)C1CCCCC1 (configuration not stated) | inactive: 5.19%
COc1ccc(OP(C)(=O)Nc2ccc(Br)cc2)cc1 (configuration not stated) | inactive: -1.15%
COc1ccccc1OP(C)(=O)Nc1c(C)n(C)n(-c2ccccc2)c1=O (configuration not stated) | inactive: 3.25%
O=C(OCCCN1CCCC1)C(O)(c1ccccc1)C1CCCCC1 (configuration not stated) | inactive: 4.03%
CP(=O)(Oc1ccccc1)N1CCOC1=O (configuration not stated) | inactive: -22.7%
CCc1ccc(OP(C)(=O)Nc2cccnc2)cc1 (configuration not stated) | inactive: 5.42%
